Experimental data as given in US8044069B2, “Compounds as calcium channel blockers” (Abbott Laboratories, priority 2008, dated 2011).

The chains behind the UniProt entries cited, without tags or fusion partners.
UniProt Q00975, whole entry, looked up: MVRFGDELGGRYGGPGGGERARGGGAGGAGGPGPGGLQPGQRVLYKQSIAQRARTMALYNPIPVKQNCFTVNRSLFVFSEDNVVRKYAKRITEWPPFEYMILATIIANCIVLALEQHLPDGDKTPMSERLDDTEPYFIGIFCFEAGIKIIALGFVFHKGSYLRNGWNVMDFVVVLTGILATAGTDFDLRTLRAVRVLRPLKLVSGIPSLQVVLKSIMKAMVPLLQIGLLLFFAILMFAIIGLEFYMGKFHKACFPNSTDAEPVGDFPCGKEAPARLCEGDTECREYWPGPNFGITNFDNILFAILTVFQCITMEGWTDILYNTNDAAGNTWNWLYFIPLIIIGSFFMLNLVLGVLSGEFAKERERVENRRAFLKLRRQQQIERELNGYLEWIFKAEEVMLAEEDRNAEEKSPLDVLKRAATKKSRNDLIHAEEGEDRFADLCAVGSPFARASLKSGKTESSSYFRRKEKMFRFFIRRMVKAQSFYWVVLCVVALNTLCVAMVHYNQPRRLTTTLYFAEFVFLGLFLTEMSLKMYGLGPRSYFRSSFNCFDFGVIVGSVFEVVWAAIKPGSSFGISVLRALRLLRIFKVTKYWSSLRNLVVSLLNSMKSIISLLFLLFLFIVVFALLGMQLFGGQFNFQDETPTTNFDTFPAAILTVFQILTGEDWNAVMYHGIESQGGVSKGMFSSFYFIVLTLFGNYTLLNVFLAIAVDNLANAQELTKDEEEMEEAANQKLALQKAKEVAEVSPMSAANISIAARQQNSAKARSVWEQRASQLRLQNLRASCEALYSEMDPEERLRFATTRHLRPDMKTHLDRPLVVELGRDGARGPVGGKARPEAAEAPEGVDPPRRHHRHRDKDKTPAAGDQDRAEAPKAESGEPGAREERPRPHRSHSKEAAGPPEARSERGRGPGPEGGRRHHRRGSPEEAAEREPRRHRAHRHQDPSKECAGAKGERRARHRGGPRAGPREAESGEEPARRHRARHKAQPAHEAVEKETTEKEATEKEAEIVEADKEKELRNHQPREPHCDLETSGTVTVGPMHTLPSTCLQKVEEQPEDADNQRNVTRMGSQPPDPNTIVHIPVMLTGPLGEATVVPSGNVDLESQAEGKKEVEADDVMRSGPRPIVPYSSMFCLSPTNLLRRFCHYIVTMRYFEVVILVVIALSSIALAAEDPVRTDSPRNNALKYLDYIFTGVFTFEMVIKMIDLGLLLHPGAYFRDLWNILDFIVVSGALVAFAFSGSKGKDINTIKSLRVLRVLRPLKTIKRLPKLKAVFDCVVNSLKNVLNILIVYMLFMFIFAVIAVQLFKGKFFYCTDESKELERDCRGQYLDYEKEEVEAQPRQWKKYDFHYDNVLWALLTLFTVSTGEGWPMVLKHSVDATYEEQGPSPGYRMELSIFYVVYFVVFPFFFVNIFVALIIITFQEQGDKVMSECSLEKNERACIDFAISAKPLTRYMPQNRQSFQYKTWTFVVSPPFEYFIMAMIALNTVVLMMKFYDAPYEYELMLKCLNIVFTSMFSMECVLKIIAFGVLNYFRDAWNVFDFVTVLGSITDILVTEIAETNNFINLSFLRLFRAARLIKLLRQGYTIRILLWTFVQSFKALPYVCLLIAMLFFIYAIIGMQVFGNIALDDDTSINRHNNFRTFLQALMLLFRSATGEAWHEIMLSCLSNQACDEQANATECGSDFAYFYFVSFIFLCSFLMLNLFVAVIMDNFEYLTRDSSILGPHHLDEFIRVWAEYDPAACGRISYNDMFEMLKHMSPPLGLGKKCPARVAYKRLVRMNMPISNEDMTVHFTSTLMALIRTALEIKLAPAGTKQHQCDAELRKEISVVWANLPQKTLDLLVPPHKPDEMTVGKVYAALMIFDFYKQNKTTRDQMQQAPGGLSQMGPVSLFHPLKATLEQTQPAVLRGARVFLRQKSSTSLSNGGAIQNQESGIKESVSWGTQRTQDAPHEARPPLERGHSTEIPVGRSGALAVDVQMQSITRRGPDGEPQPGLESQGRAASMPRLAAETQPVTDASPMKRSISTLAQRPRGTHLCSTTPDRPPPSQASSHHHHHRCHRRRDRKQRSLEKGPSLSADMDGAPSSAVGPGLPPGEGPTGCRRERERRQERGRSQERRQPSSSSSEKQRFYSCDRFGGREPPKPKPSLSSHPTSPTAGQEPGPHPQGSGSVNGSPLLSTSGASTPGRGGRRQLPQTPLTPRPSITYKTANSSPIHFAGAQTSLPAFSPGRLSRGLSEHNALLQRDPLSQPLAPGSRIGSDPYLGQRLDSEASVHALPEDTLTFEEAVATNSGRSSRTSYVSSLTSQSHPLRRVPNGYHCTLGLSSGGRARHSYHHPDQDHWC

Molecular target: human Cav2.2 (Homo sapiens, UniProt Q00975)
Assay: Assessment of calcium channel activity using FLIPR (Ca2+ influx in IMR32 cells)
Format: cell-based
Settings: IMR32 cells endogenously expressing human Cav2.2; 60 minute pre-incubation; 2 μM nifedipine; depolarized with 80 mM KCl, 5 mM CaCl2

**Q.** How did the IC50 turn out when `O=C(CN1CCCC(c2ccccc2)(c2ccccc2)C1=O)N(c1ccc(C(F)(F)F)cc1)C1CCNCC1` was run?
**A.** 3.12 µM
